Each structure is given as a SMILES string.

What is called bioavailability is dose-corrected exposure relative to a reference, in per cent. Read a low bioavailability as poor availability.

The nature of data set [1]: in vivo. The note with it: Balb/c, mouse, po, 40 mg/kg.
Data set [2] can be described thus: in vivo. The note with it: Balb/c, mouse, po, 20 mg/kg.

In “in vivo [1]”, `Cc1ccc(Nc2nc(NCCO)c3ccccc3n2)cc1` showed a bioavailability at 24 h of 37.5%.
`CCCNc1ccc2ncc(-c3ccc4[nH]ncc4c3)n2n1` showed a bioavailability at 24 h in “in vivo [2]” of 12.5%.

These data come from ChEMBL document CHEMBL5543100 (Eur J Med Chem, 2024).
